The record followed here is ChEMBL document CHEMBL2203208, “Synthesis and structure-activity relationships of dual PI3K/mTOR inhibitors based on a 4-amino-6-methyl-1,3,5-triazine sulfonamide scaffold” (Bioorg Med Chem Lett, 2012).

The subject of series [1] is LLC-PK1. Put plainly: Efflux ratio of permeability across pig LLC-PK1 cells expressing rodent MDR1.
The test system of series [2] is LLC-PK1. Put plainly: Efflux ratio of permeability across pig LLC-PK1 cells expressing human MDR1.

Turning to `Cc1nc(N)nc(-c2cc(Cl)cnc2Nc2cnc(Cl)c(NS(=O)(=O)N(C)C)c2)n1`, the Ratio in series [1] amounted to 2; in series [2], 1.4.
